Experimental data: patent US9040506B2, “7,11-methanocycloocta [B] quinoline derivative as highly functionalizable acetylcholinesterase inhibitors” (priority 2010, dated 2015)

Chains of the proteins cited; added tags and fusions are not shown. Residues count along the entry.
UniProt P22303, 32-614: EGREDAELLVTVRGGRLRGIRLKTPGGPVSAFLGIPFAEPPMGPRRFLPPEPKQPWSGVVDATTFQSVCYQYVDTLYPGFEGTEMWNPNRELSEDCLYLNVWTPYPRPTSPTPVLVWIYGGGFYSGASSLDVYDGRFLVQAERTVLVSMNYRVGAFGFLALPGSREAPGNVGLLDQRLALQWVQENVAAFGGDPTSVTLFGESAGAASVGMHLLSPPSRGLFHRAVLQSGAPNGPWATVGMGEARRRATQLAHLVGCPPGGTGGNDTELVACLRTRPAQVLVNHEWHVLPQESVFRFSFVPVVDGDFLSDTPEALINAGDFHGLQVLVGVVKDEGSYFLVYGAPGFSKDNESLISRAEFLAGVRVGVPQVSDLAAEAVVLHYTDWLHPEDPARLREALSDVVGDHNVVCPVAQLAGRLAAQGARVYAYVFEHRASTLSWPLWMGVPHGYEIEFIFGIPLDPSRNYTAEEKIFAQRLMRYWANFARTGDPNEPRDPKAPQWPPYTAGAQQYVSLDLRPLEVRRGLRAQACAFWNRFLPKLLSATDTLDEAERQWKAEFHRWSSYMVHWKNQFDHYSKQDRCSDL
UniProt P06276, 29-602: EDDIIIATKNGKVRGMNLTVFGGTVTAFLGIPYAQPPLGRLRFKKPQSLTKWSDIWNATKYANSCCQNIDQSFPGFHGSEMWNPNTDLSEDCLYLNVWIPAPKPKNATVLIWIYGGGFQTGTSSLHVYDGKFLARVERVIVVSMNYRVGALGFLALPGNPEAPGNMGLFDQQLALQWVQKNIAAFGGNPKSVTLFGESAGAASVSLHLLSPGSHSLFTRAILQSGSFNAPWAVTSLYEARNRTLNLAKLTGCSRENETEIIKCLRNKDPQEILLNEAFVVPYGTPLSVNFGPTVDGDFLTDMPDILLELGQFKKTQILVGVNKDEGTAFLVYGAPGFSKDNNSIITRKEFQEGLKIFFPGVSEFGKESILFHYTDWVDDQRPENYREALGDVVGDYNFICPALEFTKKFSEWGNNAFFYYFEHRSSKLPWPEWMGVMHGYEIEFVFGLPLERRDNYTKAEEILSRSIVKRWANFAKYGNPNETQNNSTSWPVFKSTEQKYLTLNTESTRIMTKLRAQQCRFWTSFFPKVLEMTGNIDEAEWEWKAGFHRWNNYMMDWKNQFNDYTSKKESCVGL

How the values were obtained:
rh-AChE = rh-AChE (Homo sapiens, UniProt P22303); experiment: biochemical
rh-BuChE = rh-BuChE (Homo sapiens, UniProt P06276); experiment: IC50 rh-BuChE; assay type: biochemical

NCCC1=CC2Cc3nc4cc(Cl)ccc4c(N)c3C(C1)C2 (centres unmarked) [HUP 24, 9-(2-Aminoethyl)-3-chloro-6,7,10,11-tetrahydro-7,11-methanocycloocta[b]quinolin-12-amine Ditrifluoroacetic Acid]
IC50 (rh-AChE): 244 ± 62 nM
IC50 (rh-BuChE): 991 nM
